The other results are listed elsewhere or left out.

The assay relates to A. baumannii ATCC 17978. In words: relative growth (fraction of control); higher = less inhibition. Conditions: 50 µM.
Compound `O=C(CN1CCOCC1)N[C@H]1CC[C@H](CCNS(=O)(=O)c2ccccc2F)O[C@H]1CO` registered a relative growth of 1.15.

Turning to `C=CCN(Cc1ccccc1)C(=O)[C@@H]1N(c2cccc(Cl)c2CO)C(=O)[C@H]2[C@H](C(=O)OCC)[C@@H]3C=C[C@]12O3`, the relative growth amounted to 0.934.

Turning to `CN[C@@H]1[C@@H](O[C@H]2O[C@H](CO)[C@@H](N)[C@H](O)[C@H]2O)O[C@H]2C[C@@H](N)[C@H](O[C@H]3[C@H](O)[C@@H](O)[C@H](N)C[C@@H]3N)O[C@@H]2[C@@H]1O.O=S(=O)(O)O`, the relative growth was 0.92.

`OC1(c2ccc(Cl)c(C(F)(F)F)c2)CCN(CCCC(c2ccc(F)cc2)c2ccc(F)cc2)CC1` gave a relative growth of 1.09.

The compound `C[C@H]1CNC(=CC(=O)c2ccccc2)C(=O)N1` gave a relative growth of 0.836.

`O=C(C[C@@H]1CC[C@H]2[C@@H](COC[C@H](O)CN2Cc2cc(F)ccc2F)O1)N[C@H]1CCN(Cc2ccccc2)C1` had a relative growth of 0.905.

Compound `CC(CN(C)C)CN1c2ccccc2Sc2ccccc21.O=C(O)C(O)C(O)C(=O)O` (stereo unspecified) came in with a relative growth of 0.94.

`O=C(O)COC(=O)Cc1ccccc1Nc1c(Cl)cccc1Cl` yielded a relative growth of 1.03.

Regarding `O=C(O)CSc1ncnc2nc[nH]c12`, the relative growth was determined as 0.967.

Compound `C[C@@H]1CN([C@H](C)CO)S(=O)(=O)c2ccc(-c3ccc(F)cc3)cc2O[C@@H]1CN(C)C(=O)C1CCOCC1` had a relative growth of 0.868.

`C=C1CC/C=C(/C)CC[C@@H]2[C@@H]1CC2(C)C.O` [(-)E-CARYOPHYLLENE hydrate] showed a relative growth of 0.937.

`C[C@H]1CN([C@@H](C)CO)S(=O)(=O)c2ccc(-c3ccncc3)cc2O[C@H]1CN(C)Cc1ccc(Oc2ccccc2)cc1` showed a relative growth of 1.34.

Consider `Cc1ccc2c(N)[nH]nc2n1`, for which the relative growth amounted to 0.974.

`N[C@@H](CC(=O)N1CCn2c(nnc2C(F)(F)F)C1)Cc1cc(F)c(F)cc1F.O.O=P(O)(O)O` gave a relative growth of 1.19.

In turn, `Cl.O=C1CN2Cc3c(ccc(Cl)c3Cl)N=C2N1` came in with a relative growth of 0.934.

In turn, `O=C(Nc1ccc2c(c1)[C@@H]1C[C@H](CC(=O)N3CCc4ccccc4C3)O[C@H](CO)[C@@H]1O2)C1CCOCC1` gave a relative growth of 1.03.

In the case of `COc1ccc(C#Cc2ccc3c(c2)[C@]2(C(=O)N3)[C@H](c3ccc(O)cc3)N3[C@H](c4ccccc4)[C@H](c4ccccc4)OC(=O)[C@H]3[C@@H]2C(=O)O)cc1`, the relative growth came to 1.47.

For the compound `Cc1cnc(NC(=O)C2=C(O)c3ccccc3S(=O)(=O)N2C)s1`, the relative growth was 0.992.

`NC[C@H](c1ccncc1)c1ccc[nH]1` registered a relative growth of 0.908.

Consider `c1cc(-c2nn[nH]n2)ccc1OCc1nn[nH]n1`, for which the relative growth worked out at 0.853.

`COc1cc(C)c2c(=O)c(-c3ccccc3)coc2c1` displayed a relative growth of 1.07.

The compound `O=C(C[C@@H]1CC[C@H]2[C@@H](COC[C@H](O)CN2S(=O)(=O)c2ccc(Cl)cc2)O1)N[C@H]1CCN(Cc2ccccc2)C1` registered a relative growth of 1.04.

The compound `C[C@H](CO)N1C[C@H](C)[C@H](CN(C)Cc2ccncc2)Oc2cc(C#CCN(C)C)ccc2S1(=O)=O` gave a relative growth of 0.994.

`NC1=NCCN1CC(=O)O`: the relative growth is 0.995.

Consider `CC1(C)O[C@@H]2C[C@H]3[C@@H]4CCC5=CC(=O)C=C[C@]5(C)[C@@]4(F)[C@@H](O)C[C@]3(C)[C@]2(C(=O)CO)O1`, for which the relative growth stood at 0.974.

Take `O=C(C[C@@H]1C[C@@H]2c3cc(NS(=O)(=O)c4ccc(F)cc4)ccc3O[C@@H]2[C@H](CO)O1)NC1CCCC1`: the relative growth worked out at 0.982.

With `CC(C)[C@H](N)C(=O)OCCOCn1cnc2c(=O)[nH]c(N)nc21.Cl`, the relative growth came to 1.32.

Regarding `CCc1cccc(C(C)C)c1NC(=O)Nc1ccccc1`, the relative growth turned out to be 1.09.

In turn, `COc1ccc([Si](C)(C)[C@H]2[C@H](CCn3cc([C@H](O)c4ccccc4)nn3)O[C@@]3(C(=O)N(Cc4cccc(N5CCC5=O)c4)c4ccccc43)[C@@H]2C)cc1` showed a relative growth of 1.21.

Compound `COc1ccc(C[C@@H](N)C(=O)N[C@@H]2[C@@H](O)[C@@H](n3cnc4c(N(C)C)ncnc43)O[C@@H]2CO)cc1` yielded a relative growth of 0.232.

As for `C=CCOC(=O)[C@H]1[C@@H]2C(=O)O[C@@H](c3ccccc3)[C@@H](c3ccccc3)N2[C@@H](c2ccc(OCCOC(=O)[C@H]3C[C@H]4C(=O)NCC(=O)N4[C@H]3c3ccc(O)cc3)cc2)[C@]12C(=O)Nc1ccc(I)cc12`, the relative growth is 1.25.

On to `COCCCNC(=O)[C@@]1(Sc2ccc(C)cc2)CC(=O)N(Cc2ccccc2C(F)(F)F)[C@@H]1c1ccc(CO)cc1I`, for which the relative growth was 1.06.

Consider `Cc1nnc(NS(=O)(=O)c2ccc(N)cc2)s1`, for which the relative growth was 1.02.

In turn, `COc1cccc(NC(=O)N2C[C@@H](O)COC[C@@H]3O[C@H](CC(=O)NC4Cc5ccccc5C4)CC[C@H]32)c1` showed a relative growth of 1.

Compound `C=CCSC[C@@H](N)C(=O)O` registered a relative growth of 1.04.

`C[C@@H](NC(=O)C[C@H]1CC[C@H](NC(=O)CN2CCOCC2)[C@@H](CO)O1)c1ccccc1`: the relative growth is 1.04.

In turn, `NC(=S)CS(=O)(=O)c1ccccn1` registered a relative growth of 1.02.

`C[C@]12C=CC(=O)C=C1CCC1C2[C@@H](O)C[C@@]2(C)C1CC[C@]2(O)C(=O)COP(=O)([O-])[O-].[Na+].[Na+]` (stereo partly specified): the relative growth stood at 0.994.

For `CCCNC(=O)N1C[C@H](C)[C@H](OC)CN(C)C(=O)c2cc(NS(=O)(=O)CC(F)(F)F)ccc2OC[C@H]1C`, the relative growth stood at 1.02.

In the case of `COC(=O)C1=C2CC[C@@H](COC(=O)NCCCCCC(=O)NO)NC(=O)N[C@H](Cc3ccccc3)c3cn(nn3)C[C@H](Cc3ccccc3)NC(=O)c3oc(c(C(=O)OC)c3C(=O)OC)CC[C@@H](COC(=O)NCCCCCC(=O)NO)NC(=O)N[C@H](Cc3ccccc3)c3cn(nn3)C[C@H](Cc3ccccc3)NC(=O)C(=C1C(=O)OC)O2`, the relative growth came out at 0.992.

For `CC1O[C@@H](Oc2c(-c3ccc(O)c(O)c3)oc3cc(O)cc(O)c3c2=O)[C@H](O)[C@H](O)[C@H]1O` (stereo partly specified), the relative growth was 0.891.

Turning to `COCC(=O)Nc1ccc2c(c1)C(=O)N(C)[C@@H]1CC[C@@H](CC(=O)NCc3ccccc3Cl)O[C@H]1CO2`, the relative growth was determined as 0.943.

As for `O=S(=O)(N1CCOCC1)n1nnc2ccccc21`, the relative growth was 0.983.

For `COCCOC(=O)N1C(=O)[C@@]2(c3cc(C#Cc4ccc(OC)cc4)ccc31)[C@H](c1ccc(O)cc1)N1[C@H](c3ccccc3)[C@H](c3ccccc3)OC(=O)[C@H]1[C@@H]2C(=O)N1CCCCCCC1`, the relative growth came out at 0.914.

Turning to `O=C1C2CC3CC1CC(O)(C3)C2`, the relative growth is 1.11.

`CCN1CCN(c2cc3c(cc2F)c(=O)c(C(=O)O)cn3C2CC2)CC1`: the relative growth is 0.147.

`Cl.Cl.N=C(N)N` displayed a relative growth of 0.931.

Consider `C[C@@H]1CN([C@@H](C)CO)S(=O)(=O)c2ccc(-c3cccnc3)cc2O[C@@H]1CN(C)C(=O)NC1CCCC1`, for which the relative growth is 0.991.

Regarding `COc1cc(NS(C)(=O)=O)ccc1Nc1c2ccccc2nc2ccccc12`, the relative growth amounted to 0.83.

Take `Cn1cnc(S(=O)(=O)N2C[C@H](O)COC[C@H]3O[C@@H](CC(=O)NCc4ccc(F)cc4)CC[C@@H]32)c1`: the relative growth stood at 1.1.

For the compound `COCCCN(C[C@]1(O)CC[C@H]2C3=CC=C4C[C@@H](O)CC[C@]4(C)[C@@H]3CC[C@@]21C)C(=O)O[C@H]1C[C@@H](C)CC[C@@H]1C(C)C`, the relative growth came to 0.994.

As for `CCNC(=S)N1CCOCC1`, the relative growth was 0.961.

`O=C(CN1CCOCC1)NCC[C@H]1CC[C@@H](NC(=O)c2ccccc2F)[C@H](CO)O1` returned a relative growth of 1.05.

On to `Oc1ccc(OCc2ccccc2)cc1`, for which the relative growth was found to be 1.08.

Compound `C[C@@H]1CN([C@@H](C)CO)S(=O)(=O)c2ccc(C#Cc3cccnc3)cc2O[C@@H]1CN(C)CC1CCOCC1` returned a relative growth of 1.02.

On to `CCOC(=O)c1snc2c(=O)nc[nH]c12`, for which the relative growth worked out at 0.953.

In turn, `CO[C@H]1CC(O[C@@H]2/C(C)=C/C[C@@H]3C[C@@H](C[C@]4(C=C[C@H](C)[C@@H](C5CCCCC5)O4)O3)OC(=O)[C@@H]3C=C(C)[C@@H](O)[C@H]4OC/C(=C\C=C\[C@@H]2C)[C@]43O)O[C@@H](C)C1O[C@H]1C[C@H](OC)[C@@H](O)[C@H](C)O1` (stereo partly specified) had a relative growth of 0.936.

For the compound `CCCN1C[C@H](C)[C@H](OC)CN(C)C(=O)c2cc(NS(=O)(=O)c3cn(C)cn3)ccc2OC[C@@H]1C`, the relative growth is 0.953.

As for `COC(=O)CNC(=O)C(=O)OC`, the relative growth amounted to 1.12.

The compound `C[C@@H]1O[C@@H](OC[C@H]2OC(Oc3c(-c4ccc(O)c(O)c4)oc4cc(O)cc(O)c4c3=O)[C@H](O)[C@@H](O)[C@@H]2O)[C@H](O)[C@H](O)[C@H]1O` (stereo partly specified) yielded a relative growth of 1.01.

Consider `CC(C)(C)Cc1ccc(OCCCC(=O)O)c(CC(C)(C)C)c1`, for which the relative growth is 1.41.

Turning to `O=C(O)Cn1c(=O)n(CC(=O)O)c2ccccc21`, the relative growth was found to be 1.

`Cl.Clc1ccc2c(c1)CCc1cccnc1C2=C1CCNCC1` yielded a relative growth of 0.934.

On to `CC(C)(C)[S@@](=O)N1Cc2cc(C(=O)N3CCCCC3)nc(-c3cccc(-c4cccc(C#N)c4)c3)c2[C@H]1CCO`, for which the relative growth came out at 1.04.

`C[C@H]1CN([C@@H](C)CO)S(=O)(=O)c2ccc(-c3ccncc3)cc2O[C@H]1CN(C)C(=O)c1ccc2c(c1)OCO2` came in with a relative growth of 1.03.

Compound `CCn1nc(C)cc1C(=O)NN` had a relative growth of 1.22.

The compound `O=C(NCCO[N+](=O)[O-])c1cccnc1` came in with a relative growth of 1.

`Cc1ccc(S(=O)(=O)NCC[C@@H]2CC[C@H](NS(=O)(=O)c3ccccc3Cl)[C@@H](CO)O2)cc1`: the relative growth stood at 0.893.

`COc1cccc(S(=O)(=O)Nc2ccc3c(c2)[C@@H]2C[C@H](CC(=O)NCc4ccccc4F)O[C@H](CO)[C@@H]2O3)c1` displayed a relative growth of 0.992.

As for `NC(C(=O)O)C(O)c1ccc(O)c(O)c1` (stereo unspecified), the relative growth was 1.1.

In turn, `O=c1ccc(-c2ccncc2)n[nH]1` registered a relative growth of 1.16.

In turn, `CC1=Nc2ccc(Cl)cc2S(=O)(=O)N1` had a relative growth of 1.14.

As for `C=CCOC(=O)[C@@H]1[C@H]2C(=O)O[C@H](c3ccccc3)[C@H](c3ccccc3)N2[C@H](c2ccc(OCCOC(=O)[C@@H]3C[C@@H]4C(=O)N[C@@H](CC(C)C)C(=O)N4[C@@H]3c3ccc(O)cc3)cc2)[C@@]12C(=O)Nc1ccc(I)cc12`, the relative growth was 0.957.

Consider `Cc1ccc(S[C@]2(C(=O)O)CC(=O)N(Cc3cc(C(F)(F)F)cc(C(F)(F)F)c3)[C@@H]2c2ccc(CO)cc2)cc1`, for which the relative growth was 0.925.

Compound `CC(C(=O)O)c1ccc(N2Cc3ccccc3C2=O)cc1` (stereo unspecified) yielded a relative growth of 1.07.

The compound `CNCC[C@H](Oc1cccc2ccccc12)c1cccs1.Cl` had a relative growth of 0.809.

Source of the values: published antibiotic growth screens (doi:10.1038/s41589-023-01349-8).
